The results in this text go back to PMC7052140, “Serial femtosecond crystallography on in vivo-grown crystals drives elucidation of mosquitocidal Cyt1Aa bioactivation cascade” (2020).

For assay [1], the target named is Cyt1Aa E32Q protoxin (Bacillus thuringiensis subsp. israelensis).
For assay [2], the target named is Cyt1Aa E45Q protoxin (Bacillus thuringiensis subsp. israelensis).
Assay [3] concerns the target Cyt1Aa Q168E protoxin (Bacillus thuringiensis subsp. israelensis).

For Cyt1Aa E32Q protoxin (natural protein), the fold reduction of cytotoxicity on HEK293 cells against the WT protoxin in assay [1] turned out to be 10 fold.
As for Cyt1Aa E45Q protoxin (natural protein), the cytotoxicity on HEK293 cells (LC50) in assay [2] was > 30 µM.
Consider Cyt1Aa Q168E protoxin (natural protein), for which the cytotoxicity on HEK293 cells (LC50) in assay [3] is > 30 µM.
